{
  "source": "patent US5041581A",
  "about": "(priority 1986, dated 1991)",
  "key": {"[1]": {"assay": "Solubility in organic solvents and water", "format": "physicochemical"}, "[2]": {"assay": "Encapsulation efficiency of platinum complexes in multilamellar liposomes (UV spectrophotometry / x-ray fluorescence)", "format": "physicochemical", "details": "lipophilic cisplatin analogues incorporated in liposomes (Table 12)", "description": "Multilamellar lipid vesicles (MLV) or liposomes containing incorporated platinum complexes (PT) of the above descriptions were prepared as previously described for other compounds (Lopez-Berestein et al (4)(1984) Clin. Exp. Metastasis V 2 pp 127-137 and Lopez-Berestein et al (1983) J Inf Dis V 147 pp 937-945). In brief, chloroform solutions of lipids (at the desired molar ratio) and PT were mixed at a lipid-PT ratio of 15:1 and the chloroform was evaporated in a rotary evaporator (Buchi, Brinkmann Instruments, Westbury, NY). The dried lipid film obtained, containing PT, was then dispersed with an aqueous solution (0.9% NaCl in water) by vigorous handshaking. The suspension was subsequently centrifuged at 30,000 ×g for 45 minutes, the supernatant was discarded, and the pellet containing PT was resuspended in 0.9% NaCl solution.\nElemental platinum (Pt) was determined in the liposome suspension and the pellet by x-ray fluorescence as previously reported (Seifert et al (1979) Proc. Amer. Ass'n. Cancer Res. V 20 p. 168) in the Department of Analytical Chemistry, The University of Texas Medical School at Houston, TX. The amount of platinum complex (PT) was determined in the supernatant by ultraviolet (UV) spectrophotometry using a wavelength of 224 nm. The EE was initially calculated with the two following formulas:\n1. EE =Pt in pellet/total Pt in the initial liposome suspension\n2. […]"}},
  "data": [
    {"substance": "cis-bis-neodecanoato-ethylenediamine-platinum(II)", "values": [
      {"measurement": "solubility in methanol and chloroform, in words", "setting": "[1]; methanol, chloroform (and other organic solvents where stated)", "value": "highly soluble"},
      {"measurement": "solubility in water, in words", "setting": "[1]; water", "value": "insoluble"},
      {"measurement": "Encapsulation Efficiency", "setting": "[2]", "value": 82, "unit": "%"}
    ]}
  ]
}
